Shown are actives, neighbours in structure and some others; about 1.3% of the full set was active somewhere.
SR-BI DiI inh: mouse SR-BI HDL lipid transfer inhibition; Q61009; ldlA[mSR-BI] CHO cells, DiI-HDL uptake fluorescence, 3 h; inhibition, % at 12.5 µM; 320,000 compounds, 0.96% hits;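 active = mean replicate inhibition of at least 70% and a set share of replicates each scoring 70 or more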
UUG fidelity: alters start codon recognition fidelity in yeast | S. cerevisiae UUG-firefly luciferase reporter, luminescence/redox ratio | activity score, % at 18.7 µM | hit rate 0.13% among 350,000 | AID 602363;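 active means replicate mean at a twofold rise or more, about +100% in these data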;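 further: firefly luciferase made from a UUG start codon reports start codon fidelity; reporter light over untreated wells divided by growth signal over untreated wells; some hits fall short of that in this replicate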
SR-BI uptake up: activators of SR-BI mediated HDL lipid uptake. CHO ldlA[mSR-BI] cells, DiI-HDL uptake fluorescence, 3 h; 100 = double the neutral-control signal. activation, % at 12.5 µM. 320,000 compounds, 0.096% hits;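 active = mean replicate activation of at least 60% and every replicate at or above 60%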
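Material: SR-BI-overexpressing, LDLR-lacking CHO cells; schedule: compound exposure 3 h, 37 °C; reagent: DiI-labelled HDL at 10 µg/mL final; technique: bottom-read fluorescence, 550/595 nm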
INS-1E GSIS act: GLuc luminescence reporter in INS-1E cells, primary screen for activators of glucose-dependent secretion of insulin. INS-1E GLuc reporter insulin secretion, 2-3 h. activation, % at 16.6 µM. 370,000 compounds, 0.61% hits;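 active = lowest replicate activation of at least 40%, so every replicate reaches that level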
A number is an active result; - = inactive; . = no result given.

SMILES	SR-BI DiI inh	UUG fidelity	SR-BI uptake up	INS-1E GSIS act
NC(=S)N/N=C/c1ccc(-c2cccc([N+](=O)[O-])c2)o1	78	.	-	.
CNC(=S)N/N=C/c1ccc(-c2ccc(Cl)c([N+](=O)[O-])c2)o1	-	.	-	46
COC(=O)c1ccc(CNC(=O)CCc2c[nH]c3ccccc23)cc1	-	-	-	50
CN(C)S(=O)(=O)c1cccc(NC(=O)c2cccc(S(=O)(=O)N3CCCCCC3)c2)c1	77	-	-	-
CS(=O)(=O)c1cccc(C(=O)Nc2cccc(S(=O)(=O)N3CCCC3)c2)c1	83	-	-	-
CN(C)S(=O)(=O)c1cccc(NC(=O)c2ccc(S(=O)(=O)N3CCCCC3)cc2)c1	-	-	-	-
Cc1ccc(S(C)(=O)=O)cc1C(=O)Nc1cccc(S(=O)(=O)N2CCCCCC2)c1	80	-	-	-
CC(=O)c1c(C)[nH]c(C(=O)Nc2cccc(S(=O)(=O)N3CCCCC3)c2)c1C	-	-	-	-
CC(=O)Nc1cccc(OCC(=O)Nc2cccc(S(=O)(=O)N3CCCC3)c2)c1	-	-	449	-
C/C=C/c1ccc([C@@H]2[C@@H](CO)N(C(C)=O)[C@@H]2CN(C)C(=O)CN(C)C)cc1	.	-	.	-
CN(C)C(=O)[C@@H]1[C@@H](CO)[C@@H]2Cn3c(ccc(C4=CCCCC4)c3=O)[C@H]1N2Cc1ccncc1	.	.	.	-
O=C(c1ccccn1)N1CC2(C1)[C@H](c1ccccc1)[C@@H](CO)N2C(=O)C1CCCC1	.	.	.	-
CCCN(C)C[C@H]1OCCCC[C@H](C)Oc2ccc(NC(=O)Nc3cccc4ccccc34)cc2C(=O)N([C@@H](C)CO)C[C@H]1C	.	-	.	-
Cc1cc(NC(=O)c2cccc(S(=O)(=O)N3CCCCCC3)c2)n(-c2ccccn2)n1	82	-	-	-
CCCCCCN1C=C/C(=C\C=C(C#N)C#N)c2ccccc21	76	.	-	.
CSc1ccc(/C=N/n2c(C)nc3ccccc3c2=O)cc1	-	-	-	-
COc1cc(OC)c(OC)cc1/C=N/n1c(C)nc2ccccc2c1=O	-	-	-	43
Cc1nc2ccccc2c(=O)n1/N=C/c1ccc(N(C)C)cc1	-	-	-	67
Cc1noc(C)c1NC(=O)Nc1ccc2c(c1)C(=O)N([C@H](C)CO)C[C@@H](C)[C@H](CN(C)C(=O)Nc1ccc(C(F)(F)F)cc1)O2	.	-	.	-
C(=N\NC1=Nc2cccc3cccc1c23)/c1ccccc1	-	.	-	-
Clc1ccc(/C=N/NC2=Nc3cccc4cccc2c34)cc1	-	.	-	98
C[C@H](CO)N1C[C@H](C)[C@@H](CN(C)C(=O)Nc2ccc(C(F)(F)F)cc2)Oc2ncc(-c3cccnc3)cc2C1=O	.	-	.	-
CCCCCCCCCCOC(=O)Cn1c(COc2ccc(Cl)cc2)[n+](C)c2ccccc21	-	-	-	207
CCCCCCCCCCOC(=O)Cn1c(COc2ccccc2C)[n+](C)c2ccccc21	-	-	-	139
CCCCCCCCCCOC(=O)Cn1c(COc2ccc(OC)cc2)[n+](C)c2ccccc21	-	-	-	.
SMILES	SR-BI DiI inh	UUG fidelity	SR-BI uptake up	INS-1E GSIS act
CCCCCCCCCCOC(=O)Cn1c(COc2cccc(C)c2)[n+](C)c2ccccc21	-	-	-	171
CCCCCCCCCCOC(=O)Cn1c(COc2ccccc2)[n+](C)c2ccccc21	-	-	-	127
COc1ccc(S(=O)(=O)N2C[C@H](O)COC[C@H]3O[C@@H](CC(=O)NCc4ccc(Cl)c(Cl)c4)CC[C@@H]32)cc1	.	-	.	-
COc1cccc(CN2CC3(CN(CC4CC4)C3)c3c([nH]c4cc(OC)ccc34)[C@H]2CO)c1	.	.	.	-
CCC(=O)N1CC2(C1)CN(Cc1ccccc1Cl)[C@H](CO)c1[nH]c3cc(OC)ccc3c12	.	.	.	-
CN(C)CCCN(C(=O)c1ccco1)c1nc2c(F)cccc2s1	.	.	.	41
CN(C)CCCN(C(=O)CCOc1ccccc1)c1nc2ccc(F)cc2s1	-	-	-	45
CN(C)CCCN(C(=O)CCOc1ccccc1)c1nc2c(F)cccc2s1	.	.	.	99
C[C@@H]1CN([C@H](C)CO)S(=O)(=O)c2ccc(-c3cncnc3)cc2O[C@H]1CN(C)CC1CC1	.	-	.	-
COc1cc(OC)c(C2=NOC(C(=O)N3CCCc4ccccc43)C2)cc1Cl (stereo unspecified)	81	-	-	-
CCC1CCCCN1C(=O)C1CC(c2cc(Cl)c(OC)cc2OC)=NO1 (stereo unspecified)	-	-	-	-
CCCN1C(=O)/C(=C/c2ccco2)SC1=Nc1ccc(OC)cc1	79	.	-	.
COCCNC(=O)C[C@H]1C[C@H]2c3cc(NC(=O)CC4CC4)ccc3O[C@H]2[C@@H](CO)O1	.	-	.	-
C[C@@H]1CN([C@H](C)CO)C(=O)Cc2cc(NC(=O)Cc3cn(C)c4ccccc34)ccc2O[C@H]1CN(C)S(=O)(=O)c1ccccc1	.	-	.	-
COc1ccc(C(=O)CSc2nnc(CNc3ccc(C)cc3C)o2)cc1	-	-	-	59
Cc1ccc(NCc2nnc(SCC(=O)c3ccc4c(c3)OCCO4)o2)c(C)c1	-	-	-	-
COc1ccc(OC)c(-c2csc(NC(=O)C3CSC4(C)CCC(=O)N34)n2)c1 (stereo unspecified)	82	-	-	-
Cc1ccc(S(=O)(=O)N(C)C[C@H]2Oc3ccc(NS(=O)(=O)c4cn(C)cn4)cc3CC(=O)N([C@@H](C)CO)C[C@@H]2C)cc1	.	.	.	-
COc1cc(OC)cc(C(=O)Nc2nc(CC(=O)NCc3ccc(F)cc3)cs2)c1	-	-	-	-
CCOC(=O)Cc1csc(NC(=O)c2cc(OC)cc(OC)c2)n1	-	-	-	.
COc1cc(OC)cc(C(=O)Nc2nc(CC(=O)NCCc3ccccc3)cs2)c1	81	.	-	-
COc1cc(OC)cc(C(=O)Nc2nc(CC(=O)NCc3ccccc3OC)cs2)c1	70	-	-	-
C[C@@H]1CN([C@@H](C)CO)C(=O)c2cc(C#CC3CC3)cnc2O[C@@H]1CN(C)C(=O)C1CCCCC1	.	.	.	-
CCOC(=O)N1CCC(N2C(=O)c3ccc(C(=O)Nc4ccc(F)cc4F)cc3C2=O)CC1	78	-	-	-
CCOC(=O)N1CCC(N2C(=O)c3ccc(C(=O)Nc4ccc(OC)cc4)cc3C2=O)CC1	-	-	-	-
SMILES	SR-BI DiI inh	UUG fidelity	SR-BI uptake up	INS-1E GSIS act
COc1ccc([N+](=O)[O-])cc1NC(=O)C(C)N1CCN(C(=O)c2ccco2)CC1 (stereo unspecified)	72	-	-	-
COc1ccc([N+](=O)[O-])cc1NC(=O)C(C)N(C)Cc1ccc(Br)cc1 (stereo unspecified)	75	-	-	.
CCOC(=O)COc1c(Br)cc(/C=C2\SC(=O)N(CC(=O)N3CCCC3)C2=O)cc1OC	72	-	-	.
CC/C(O)=C1\C(=O)CC(c2ccccc2)CC1=NC(C)C (stereo unspecified)	-	-	-	63
CC(C)NC(=O)Nc1ccc2c(c1)CC(=O)N(C)C[C@H](C)[C@H](CN(C)C)O2	.	.	.	-
Cc1cc(/C=N\NC(=O)COc2cccc3cccnc23)c(C)n1-c1ccc(Br)cc1	-	.	-	-
